Antibody variant affinities, Ab-14 light chain, assay B

The target is the same throughout: PDVDLGDISGINAS, from the HR2 region of SARS-CoV-2 spike.

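Designed CDR sequences, proposed from the first random library and measured here. Their group label is 14L_GP_Gibbs (GP: Gaussian process model; Gibbs: Gibbs sampling; a sequence that several methods proposed may carry one label only). The assay is AlphaSeq: two haploid yeast populations carry antibody and antigen on their surface. Binding brings cells together so that they mate, and sequencing counts the barcode pairs among the diploids. Each replicate has its own calibration line, from reference interactions of the BCL2 family. Each pool was mated in six replicate cultures.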

Parent scFv Ab-14: VH joined to VL by a 15-residue (Gly4Ser)3 linker. Changes lie in the light chain CDRs alone.
VH: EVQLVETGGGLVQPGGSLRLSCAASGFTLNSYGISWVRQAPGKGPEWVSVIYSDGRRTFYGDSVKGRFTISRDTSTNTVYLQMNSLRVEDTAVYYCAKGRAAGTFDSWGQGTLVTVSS
VL: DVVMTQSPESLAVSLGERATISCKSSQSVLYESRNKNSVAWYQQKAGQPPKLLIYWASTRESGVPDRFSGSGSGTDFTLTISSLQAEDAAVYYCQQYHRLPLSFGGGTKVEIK

The parent's light chain CDRs are KSSQSVLYESRNKNSVA, WASTRES, QQYHRLPLS; each variant's own CDRs replace them letter for letter. Affinities are written as log10 Kd with Kd in nM; a lower number is a better binder. A mean of the replicates is given; it leaves out those without a signal. An entry "n.d." has no value in the source: the pair was not observed among the diploids in that replicate. This suggests poor binding but is not conclusive. Three control strains display no target. For all light chain designs, 4% of the pairings with them gave a signal, with a median of 2.64 and one signal in twenty below 1.59, so weak values seen in few replicates may be background. For each scFv, signals with the empty controls are counted beside the result, with their mean in brackets. Values of this round are not directly comparable with the first-round values of the same sequences. The authors' rule: three or more of the six replicates give a measured affinity, fewer mean a poor binder.

{"CDR-L1": "KFEWSQLYESRNCNSVA", "CDR-L2": "NASTRES", "CDR-L3": "QQYWRLPLS", "log10 Kd, replicates": "1.25 / 1.30 / 0.83 / 0.80 / 1.22 / 1.10", "mean log10 Kd (nM)": "1.08", "empty controls": "0 of 18"}
{"CDR-L1": "KVQQSVPYEDRNKNSVA", "CDR-L2": "HASTRCS", "CDR-L3": "QDYHRLPLS", "log10 Kd, replicates": "0.04 / 0.00 / -0.15 / -0.35 / -0.23 / 0.01", "mean log10 Kd (nM)": "-0.11", "empty controls": "0 of 18"}
{"CDR-L1": "KLSQSMPYEQRAKNSVA", "CDR-L2": "NASQRES", "CDR-L3": "QQYHRLPLS", "log10 Kd, replicates": "0.44 / 0.03 / 0.06 / -0.17 / 0.24 / 0.06", "mean log10 Kd (nM)": "0.11", "empty controls": "5 of 18 (3.12)"}
{"CDR-L1": "KFDQEWLYESRNKNSVA", "CDR-L2": "HASQRCS", "CDR-L3": "QQYHRLPLS", "log10 Kd, replicates": "0.25 / 0.23 / 0.28 / 0.24 / 0.32 / 0.42", "mean log10 Kd (nM)": "0.29", "empty controls": "1 of 18 (1.49)"}
{"CDR-L1": "KLEQSTSYESRMCNSVA", "CDR-L2": "NASVRES", "CDR-L3": "QQYHRLPLS", "log10 Kd, replicates": "0.62 / 0.31 / 0.48 / 1.37 / 0.53 / 0.70", "mean log10 Kd (nM)": "0.67", "empty controls": "0 of 18"}
{"CDR-L1": "KLQQSELGLSRNMNSVA", "CDR-L2": "HASTRES", "CDR-L3": "QQYHRLPLS", "log10 Kd, replicates": "0.02 / -0.16 / -0.12 / -0.09 / -0.16 / 0.02", "mean log10 Kd (nM)": "-0.08", "empty controls": "1 of 18 (1.79)"}
{"CDR-L1": "KAMQMVMQESRNKNSVA", "CDR-L2": "NASTRMQ", "CDR-L3": "QQYHRLPLS", "log10 Kd, replicates": "0.06 / -0.08 / -0.12 / -0.18 / 0.00 / -0.03", "mean log10 Kd (nM)": "-0.06", "empty controls": "0 of 18"}
{"CDR-L1": "KLQQSMLYESRNVNSVA", "CDR-L2": "DASKRES", "CDR-L3": "QAYHRLPLS", "log10 Kd, replicates": "-0.02 / 0.03 / -0.18 / -0.22 / -0.17 / 0.06", "mean log10 Kd (nM)": "-0.08", "empty controls": "0 of 18"}
{"CDR-L1": "KIDISELGESRNWNSVA", "CDR-L2": "NASQREE", "CDR-L3": "QQYHRLPLS", "log10 Kd, replicates": "-0.13 / -0.31 / -0.31 / -0.39 / -0.27 / -0.17", "mean log10 Kd (nM)": "-0.26", "empty controls": "1 of 18 (2.04)"}
{"CDR-L1": "KLQMSELPESRNKNSVA", "CDR-L2": "WASTREP", "CDR-L3": "QQYHRLPLS", "log10 Kd, replicates": "1.50 / 1.10 / 1.15 / 1.32 / 1.20 / 1.27", "mean log10 Kd (nM)": "1.26", "empty controls": "2 of 18 (3.16)"}
{"CDR-L1": "KLMQEQEYQSRMKNSVA", "CDR-L2": "HASERLS", "CDR-L3": "QQYHRLPLS", "log10 Kd, replicates": "0.32 / 0.43 / 0.51 / 0.18 / 0.11 / 0.40", "mean log10 Kd (nM)": "0.32", "empty controls": "0 of 18"}
{"CDR-L1": "KVPGEQLYESRNKNSVA", "CDR-L2": "EASTRES", "CDR-L3": "QQYHRLPLS", "log10 Kd, replicates": "0.57 / 0.10 / 0.78 / 0.70 / 0.42 / 1.00", "mean log10 Kd (nM)": "0.60", "empty controls": "0 of 18"}
{"CDR-L1": "KSFQSELDEQRNDNSVA", "CDR-L2": "SASTRLS", "CDR-L3": "QQYHRLPLS", "log10 Kd, replicates": "0.33 / 0.66 / 0.03 / 0.61 / 0.26 / 0.41", "mean log10 Kd (nM)": "0.38", "empty controls": "2 of 18 (2.55)"}
{"CDR-L1": "KLSQSWMQESRNKNSVA", "CDR-L2": "QASTREQ", "CDR-L3": "QQYHRLPLS", "log10 Kd, replicates": "-0.30 / -0.21 / -0.22 / -0.54 / -0.40 / -0.27", "mean log10 Kd (nM)": "-0.32", "empty controls": "1 of 18 (2.22)"}
{"CDR-L1": "KLQQSQLYESQNWNSVA", "CDR-L2": "NASKRES", "CDR-L3": "QQYHRLPLS", "log10 Kd, replicates": "0.19 / -0.05 / 0.12 / -0.12 / 0.09 / 0.11", "mean log10 Kd (nM)": "0.06", "empty controls": "0 of 18"}
{"CDR-L1": "KMKQSVDGLDRNQNSVA", "CDR-L2": "QASTREM", "CDR-L3": "QQYHRLPLS", "log10 Kd, replicates": "0.10 / 0.17 / -0.17 / -0.13 / 0.02 / 0.00", "mean log10 Kd (nM)": "0.00", "empty controls": "1 of 18 (2.37)"}
{"CDR-L1": "KMSPSVLYQSRNSNAVA", "CDR-L2": "QASQRES", "CDR-L3": "QQYHRLPLS", "log10 Kd, replicates": "-0.31 / -0.45 / -0.62 / -0.49 / -0.55 / -0.24", "mean log10 Kd (nM)": "-0.44", "empty controls": "2 of 18 (1.71)"}
{"CDR-L1": "KLSQSDLYESRNKNNVA", "CDR-L2": "NASLREM", "CDR-L3": "QDYHRLPLS", "log10 Kd, replicates": "-0.35 / -0.13 / -0.01 / -0.35 / -0.08 / -0.09", "mean log10 Kd (nM)": "-0.17", "empty controls": "2 of 18 (2.73)"}
{"CDR-L1": "KVSESQDYESRNKNSVA", "CDR-L2": "NASTREE", "CDR-L3": "QQYHRLPLS", "log10 Kd, replicates": "-0.16 / -0.24 / -0.32 / -0.11 / -0.25 / -0.20", "mean log10 Kd (nM)": "-0.21", "empty controls": "1 of 18 (1.56)"}
{"CDR-L1": "KVSVSQPYETRNKNSVA", "CDR-L2": "NASTREE", "CDR-L3": "QQYHRLPLS", "log10 Kd, replicates": "0.29 / 0.17 / 0.17 / -0.07 / -0.06 / 0.13", "mean log10 Kd (nM)": "0.10", "empty controls": "2 of 18 (2.89)"}
{"CDR-L1": "KLSESVLYESQNWNQVA", "CDR-L2": "EASTRMS", "CDR-L3": "QQYHRLPLS", "log10 Kd, replicates": "0.45 / 0.09 / 0.15 / 0.15 / 0.32 / 0.29", "mean log10 Kd (nM)": "0.24", "empty controls": "0 of 18"}
{"CDR-L1": "KQSFMVMEGSRNKNSVA", "CDR-L2": "EASQREE", "CDR-L3": "QQYHRLPLS", "log10 Kd, replicates": "n.d. / n.d. / n.d. / 3.07 / n.d. / n.d.", "mean log10 Kd (nM)": "3.07", "empty controls": "0 of 18"}
{"CDR-L1": "KFMQSDLYESRNQNNVA", "CDR-L2": "DASTRMS", "CDR-L3": "QQYHRLPLS", "log10 Kd, replicates": "-0.29 / -0.45 / -0.48 / -0.66 / -0.38 / -0.29", "mean log10 Kd (nM)": "-0.43", "empty controls": "0 of 18"}

Excerpt, the first 3 entries:

CDR-L1,CDR-L2,CDR-L3,"log10 Kd, replicates",mean log10 Kd (nM),empty controls
KFEWSQLYESRNCNSVA,NASTRES,QQYWRLPLS,1.25 / 1.30 / 0.83 / 0.80 / 1.22 / 1.10,1.08,0 of 18
KVQQSVPYEDRNKNSVA,HASTRCS,QDYHRLPLS,0.04 / 0.00 / -0.15 / -0.35 / -0.23 / 0.01,-0.11,0 of 18
KLSQSMPYEQRAKNSVA,NASQRES,QQYHRLPLS,0.44 / 0.03 / 0.06 / -0.17 / 0.24 / 0.06,0.11,5 of 18 (3.12)

Values reported by Li et al. 2023, doi:10.1038/s41467-023-39022-2 (FLAb copy).